Measured values from ChEMBL document CHEMBL1122942, “Conformationally defined adrenergic agents. 1. Design and synthesis of novel alpha 2 selective adrenergic agents: electrostatic repulsion based conformational prototypes” (J Med Chem, 1985).

Protein sequences, listed by entry. Tags and fused reporters are not part of them. Lines headed by an entry give the natural chain unless they say otherwise; changes in a name come on top.
UniProt P22086: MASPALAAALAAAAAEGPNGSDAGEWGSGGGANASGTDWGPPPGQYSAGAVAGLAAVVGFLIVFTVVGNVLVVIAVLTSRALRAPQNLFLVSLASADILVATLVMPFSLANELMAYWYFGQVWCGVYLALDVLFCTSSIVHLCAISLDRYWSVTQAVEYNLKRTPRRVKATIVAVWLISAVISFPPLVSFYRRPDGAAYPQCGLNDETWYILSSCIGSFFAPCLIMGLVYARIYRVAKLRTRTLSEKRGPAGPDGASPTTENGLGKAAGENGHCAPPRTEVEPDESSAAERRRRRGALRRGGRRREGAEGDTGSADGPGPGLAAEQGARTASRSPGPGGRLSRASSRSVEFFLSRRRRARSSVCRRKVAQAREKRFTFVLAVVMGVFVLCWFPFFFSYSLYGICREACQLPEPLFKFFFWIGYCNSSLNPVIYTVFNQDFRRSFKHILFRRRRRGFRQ
UniProt P19328: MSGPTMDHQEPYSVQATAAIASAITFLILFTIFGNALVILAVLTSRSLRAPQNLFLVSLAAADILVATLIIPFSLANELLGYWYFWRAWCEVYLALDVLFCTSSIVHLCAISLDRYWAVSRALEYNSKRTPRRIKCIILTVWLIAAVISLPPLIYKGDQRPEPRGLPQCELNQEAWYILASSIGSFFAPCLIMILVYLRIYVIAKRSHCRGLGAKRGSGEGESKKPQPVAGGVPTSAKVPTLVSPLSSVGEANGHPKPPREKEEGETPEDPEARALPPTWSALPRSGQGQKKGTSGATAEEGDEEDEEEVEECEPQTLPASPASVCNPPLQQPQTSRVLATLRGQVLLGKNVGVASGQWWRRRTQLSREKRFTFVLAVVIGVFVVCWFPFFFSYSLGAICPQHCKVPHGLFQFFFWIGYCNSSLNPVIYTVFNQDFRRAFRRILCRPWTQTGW
UniProt P22909: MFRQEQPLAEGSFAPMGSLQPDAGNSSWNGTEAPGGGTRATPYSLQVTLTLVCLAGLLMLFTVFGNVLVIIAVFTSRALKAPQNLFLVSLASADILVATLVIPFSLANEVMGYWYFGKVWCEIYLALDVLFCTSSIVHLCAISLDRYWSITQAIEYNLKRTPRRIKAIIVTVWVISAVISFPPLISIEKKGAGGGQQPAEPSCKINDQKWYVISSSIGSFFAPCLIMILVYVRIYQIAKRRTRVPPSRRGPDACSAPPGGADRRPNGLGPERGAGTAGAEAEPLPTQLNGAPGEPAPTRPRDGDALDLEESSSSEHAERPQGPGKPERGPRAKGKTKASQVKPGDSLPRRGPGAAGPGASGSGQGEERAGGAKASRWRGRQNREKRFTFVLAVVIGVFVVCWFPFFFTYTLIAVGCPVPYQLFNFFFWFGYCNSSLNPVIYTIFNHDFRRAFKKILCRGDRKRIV

Target: Adrenergic receptor alpha-2 (Rattus norvegicus, UniProt P22086+P19328+P22909)
Assay: Binding affinity towards alpha-2 adrenergic receptor in rat using [3H]rauwolscine as radioligand
Summary of the method: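 Male Sprague-Dawley rat cerebral cortex membranes (50-150 µg/mL protein) in 50 mM Tris-HCl pH 7.7 with [3H]rauwolscine. Incubated 2 h at 4 °C; phentolamine 10^-5 M defined nonspecific binding. At least four concentrations from 10^-10 to 10^-3 M, each in duplicate. Bound ligand was filtered and counted by scintillation.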

Brc1c(NC2=NCCN2)ccc2nccnc12 [BRIMONIDINE] showed a Ki of 30 nM.
